The record followed here is article PMC4673902 (Journal of medicinal chemistry, 2012).

The chains behind the UniProt entries cited, without tags or fusion partners. Where a name states a change or a piece, a line headed by the entry shows the natural chain unless it says otherwise.
UniProt Q9UPP1: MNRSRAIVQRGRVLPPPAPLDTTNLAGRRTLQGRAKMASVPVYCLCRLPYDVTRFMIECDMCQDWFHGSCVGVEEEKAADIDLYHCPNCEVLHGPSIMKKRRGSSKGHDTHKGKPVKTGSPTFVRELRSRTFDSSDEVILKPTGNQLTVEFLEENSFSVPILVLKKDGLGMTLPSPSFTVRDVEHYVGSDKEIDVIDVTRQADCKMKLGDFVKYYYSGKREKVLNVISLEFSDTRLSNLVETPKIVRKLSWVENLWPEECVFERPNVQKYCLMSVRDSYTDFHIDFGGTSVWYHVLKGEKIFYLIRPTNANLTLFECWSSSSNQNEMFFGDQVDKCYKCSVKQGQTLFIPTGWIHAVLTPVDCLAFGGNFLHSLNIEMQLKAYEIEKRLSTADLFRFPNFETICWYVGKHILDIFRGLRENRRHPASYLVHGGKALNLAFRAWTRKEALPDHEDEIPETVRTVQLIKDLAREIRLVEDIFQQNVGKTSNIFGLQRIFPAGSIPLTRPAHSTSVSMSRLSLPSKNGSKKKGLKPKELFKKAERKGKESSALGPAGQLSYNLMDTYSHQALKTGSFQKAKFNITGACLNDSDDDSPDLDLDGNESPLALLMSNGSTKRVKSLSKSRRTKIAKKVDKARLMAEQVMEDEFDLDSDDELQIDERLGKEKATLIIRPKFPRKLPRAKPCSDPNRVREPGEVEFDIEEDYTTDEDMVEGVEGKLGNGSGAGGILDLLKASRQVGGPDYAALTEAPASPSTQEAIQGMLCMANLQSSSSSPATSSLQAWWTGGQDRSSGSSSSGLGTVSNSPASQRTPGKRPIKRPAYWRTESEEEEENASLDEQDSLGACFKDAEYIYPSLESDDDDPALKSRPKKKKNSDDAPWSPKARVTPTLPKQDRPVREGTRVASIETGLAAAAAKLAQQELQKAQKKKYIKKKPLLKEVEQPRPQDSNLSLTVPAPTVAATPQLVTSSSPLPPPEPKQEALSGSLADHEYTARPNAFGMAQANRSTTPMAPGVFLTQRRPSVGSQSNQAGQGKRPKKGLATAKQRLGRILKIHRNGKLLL

Usually IC50 stands for the concentration at which inhibition is half-maximal. Lower therefore signals higher potency.

The assay deals with PHF8 (Homo sapiens, UniProt Q9UPP1). The experiment in a line: AlphaScreen demethylase activity assay, PHF8. In kind it is biochemical.

In turn, `CN(C)NC(=O)CCC(=O)O` [Daminozide, N-(dimethylamino)succinamic acid] showed an IC50 of no more than 2000 nM.
